In US7351686B2 (priority 2001, dated 2008):

Test system: transgenic mice overexpressing human mutant SOD1 (ALS mice)
Settings: mouse, in vivo

Nc1nc2ccc(OC(F)(F)F)cc2s1 [Riluzole, 2-amino-6-(trifluoromethoxy)benzothiazole]
increase in survival over control: 9%
